Values of other authors as cited in patent US10555923B2, “Method for treating paroxysmal nocturnal hemoglobinuria” (ENZYCHEM LIFESCIENCES CORPORATION, priority 2015, dated 2020).

Test system: terminal complement activation
Conditions: Cochrane review 2014; cited from earlier work

B1: eculizumab: monoclonal antibody which blocks terminal complement activation (antibody, chains of the INN, looked up)
heavy: QVQLVQSGAEVKKPGASVKVSCKASGYIFSNYWIQWVRQAPGQGLEWMGEILPGSGSTEYTENFKDRVTMTRDTSTSTVYMELSSLRSEDTAVYYCARYFFGSSPNWYFDVWGQGTLVTVSSASTKGPSVFPLAPCSRSTSESTAALGCLVKDYFPEPVTVSWNSGALTSGVHTFPAVLQSSGLYSLSSVVTVPSSNFGTQTYTCNVDHKPSNTKVDKTVERKCCVECPPCPAPPVAGPSVFLFPPKPKDTLMISRTPEVTCVVVDVSQEDPEVQFNWYVDGVEVHNAKTKPREEQFNSTYRVVSVLTVLHQDWLNGKEYKCKVSNKGLPSSIEKTISKAKGQPREPQVYTLPPSQEEMTKNQVSLTCLVKGFYPSDIAVEWESNGQPENNYKTTPPVLDSDGSFFLYSRLTVDKSRWQEGNVFSCSVMHEALHNHYTQKSLSLSLG
light: DIQMTQSPSSLSASVGDRVTITCGASENIYGALNWYQQKPGKAPKLLIYGATNLADGVPSRFSGSGSGTDFTLTISSLQPEDFATYYCQNVLNTPLTFGQGTKVEIKRTVAAPSVFIFPPSDEQLKSGTASVVCLLNNFYPREAKVQWKVDNALQSGNSQESVTEQDSKDSTYSLSSTLTLSKADYEKHKVYACEVTHQGLSSPVTKSFNRGEC
  need for blood transfusions and quality of life in PNH patients: reduces the need for blood transfusions and improves quality of life
  overall mortality or incidence of clots in PNH patients: does not reduce overall mortality or the incidence of clots
